The assay deals with T1, human cloned H1 receptor (Homo sapiens, UniProt P35367).
T1 construct: expressed in transfected cells; host or cells: CHO-K1
The assay can be described thus: CHO-K1 H1R binding assay. To be noted: 3H-pyrilamine 2 nM, CHO-K1 membranes, 3 hours at 37° C.; read-out: CHOH1 K1. The procedure: This assay is commonly used to measure the ability of a compound to act as a histamine H1 receptor binding ligand. As this assay employs human cloned H1 receptors it can provide a good approximation of what can be expected when a compound is administered to humans.
Details of the assay procedure are as follows. CHO-K1 cells expressing the human cloned H1 receptor are grown to confluence in tissue culture dishes. Cells are harvested using D-PBS buffer (JRH Biosciences), kept at 4° C., centrifuging to pellet cells (4° C., 500 g, 10 min). The final cell pellet is homogenized and resuspended using Tris/sucrose buffer (20 mM Tris, 250 mM sucrose, pH 7.4 at 4° C.). Aliquots of the membrane preparation are stored at −70° C.
On the day of assay, the membrane preparation is thawed and centrifuged (TLA100.3 rotor, 4° C., 15 min, 23,000 rpm). The pellet is resuspended in Tris/sucrose buffer initially and then diluted further as necessary using assay buffer A (50 mM Na/KPO4, 2 mM MgCl2, 0.5% (w/v) BSA, pH 7.5).
For the binding assay, the membrane preparation, test compound and ^3H-pyrilamine (2 nM final) in buffer A with 1% (v/v) DMSO final are incubated in a 96-well polypropylene plate for 3 hours at 37° C. Non-specific binding is determined in the presence of 10 μM pyrilamine. A 96-well harvester (Packard) is used to harvest the 96-well plate onto a GF/B filter plate pre-treated with 0.1% (v/v) PEI. The plate is counted in a Packard Topcounter after adding Microscint 20 (Packard) scintillation fluid. The Ki for each compound at the histamine H1 receptor is then calculated from these counts.

By UniProt entry, the sequences of proteins in these tests, tags left out.
UniProt P35367, whole entry: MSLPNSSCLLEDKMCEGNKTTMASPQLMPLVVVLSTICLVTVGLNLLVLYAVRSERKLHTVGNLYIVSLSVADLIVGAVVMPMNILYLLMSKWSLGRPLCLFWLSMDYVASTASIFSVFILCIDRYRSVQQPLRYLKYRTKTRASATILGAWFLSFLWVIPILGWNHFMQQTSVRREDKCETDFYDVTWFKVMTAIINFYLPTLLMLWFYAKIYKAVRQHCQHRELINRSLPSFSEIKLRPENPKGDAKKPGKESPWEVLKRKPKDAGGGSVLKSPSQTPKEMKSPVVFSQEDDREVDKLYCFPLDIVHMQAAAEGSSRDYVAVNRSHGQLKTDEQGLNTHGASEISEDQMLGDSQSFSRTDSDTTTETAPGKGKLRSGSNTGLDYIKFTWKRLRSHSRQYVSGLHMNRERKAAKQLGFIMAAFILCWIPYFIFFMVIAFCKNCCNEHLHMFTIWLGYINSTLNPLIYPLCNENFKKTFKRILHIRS

The structures appear in SMILES notation. pKi: −log10 of the molar value.

As for `NC(=O)N(O)CCC#Cc1ccc(OCCN2CCN([C@H](c3ccccc3)c3ccc(Cl)cc3)CC2)cc1` [Compound 12, N-{4-[4-(2-{4-[(1R) (4-chlorophenyl)phenylmethyl]piperazinyl}ethoxy)phenyl]but-3-ynyl} amino-N-hydroxyamide], the pKi is 6.42.

On to `NC(=O)N(O)CCC#Cc1ccc(OCCN2CCC(=C3c4ccc(Cl)cc4CCc4cccnc43)CC2)cc1` [Compound 32], for which the pKi is 8.15.

`NC(=O)N(O)CCC#Cc1ccc(OCCCN2CCN([C@H](c3ccccc3)c3ccc(Cl)cc3)CC2)cc1` [Compound 52, N-{4-[4-(3-{4-[(1R)(4-chlorophenyl)phenyl-methyl]piperazinyt}propoxy)phenyl]but-3-ynyl}amino-N-hydroxyamide]: the pKi is 8.22.

With `NC(=O)N(O)CCC#Cc1ccc(OCCCCN2CCN(C(c3ccc(F)cc3)c3ccc(F)cc3)CC2)cc1` [Compound 80, amino-N-{4-[4-(4-{4-[bis(4-fluorophenyl)methyl]piperazinyl}butoxy)phenyl]but-3-ynyl}-N-hydroxyamide], the pKi was 7.57.

Values taken from patent US6451801B1, “Compounds and methods for treatment of asthma, allergy and inflammatory disorders” (UCB, S.A., priority 1999, dated 2002).
